The target in experiment [1] is T1, Bromodomain BRD-2 (1-473) (Homo sapiens, UniProt P25440).
T1 construct: Recombinant Human Bromodomains (BRD-2 (1-473), BRD-3 (1-435) and BRD-4 (1-477)); six-His tag (N); made in house; host or cells: E. coli (pET15b vector)
Nature of the experiment: Fluorescence Anisotropy Binding Assay, BRD-2. The note with it: pIC50 in the BRD-2 assay, displacement of fluorescent ligand (Reference compound K) 5 nM, BRD-2 75 nM. The protocol: (§1) Fluorescence Anisotropy Binding Assay
(§2) All data was normalized to the mean of 16 high and 16 low control wells on each plate. A four parameter curve fit of the following form was then applied: y=a+((b−a)/(1+(10^x/10^c)^d)
(§3) Where ‘a’ is the minimum, ‘b’ is the Hill slope, ‘c’ is the pIC50 and ‘d’ is the maximum.
(§4) The His-tagged Bromodomain was extracted from E. coli cells using 0.1 mg/ml lysozyme and sonication. […] Further purification was completed by Superdex 200 prep grade size exclusion column. Purified protein was stored at −80 C in 20 mM HEPES pH 7.5 and 100 mM NaCl.
(§5) 10 μl of this reaction mixture was added using a micro multidrop to wells containing 100 nl of various concentrations of test compound or DMSO vehicle (1% final) in Greiner 384 well Black low volume microtitre plate and equilibrated in dark 60 mins at room temperature.
(Fluorescence polarisation rises when a labelled molecule tumbles more slowly, as on binding a larger partner.)

The chains behind the UniProt entries cited, without tags or fusion partners. Residues count along the entry.
UniProt P25440, 1-473: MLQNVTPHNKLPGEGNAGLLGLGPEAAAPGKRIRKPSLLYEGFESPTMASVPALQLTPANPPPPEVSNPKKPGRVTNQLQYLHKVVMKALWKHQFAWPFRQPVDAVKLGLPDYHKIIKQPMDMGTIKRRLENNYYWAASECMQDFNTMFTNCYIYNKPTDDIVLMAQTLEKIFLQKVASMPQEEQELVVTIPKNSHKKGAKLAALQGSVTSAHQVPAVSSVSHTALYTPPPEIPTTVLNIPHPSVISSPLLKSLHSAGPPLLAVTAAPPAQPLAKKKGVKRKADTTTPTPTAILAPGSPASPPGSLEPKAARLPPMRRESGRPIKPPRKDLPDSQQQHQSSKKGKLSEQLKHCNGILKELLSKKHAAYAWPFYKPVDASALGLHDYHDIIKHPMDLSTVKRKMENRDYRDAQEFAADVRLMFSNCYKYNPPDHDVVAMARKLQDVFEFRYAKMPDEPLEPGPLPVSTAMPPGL
UniProt Q15059, 1-435: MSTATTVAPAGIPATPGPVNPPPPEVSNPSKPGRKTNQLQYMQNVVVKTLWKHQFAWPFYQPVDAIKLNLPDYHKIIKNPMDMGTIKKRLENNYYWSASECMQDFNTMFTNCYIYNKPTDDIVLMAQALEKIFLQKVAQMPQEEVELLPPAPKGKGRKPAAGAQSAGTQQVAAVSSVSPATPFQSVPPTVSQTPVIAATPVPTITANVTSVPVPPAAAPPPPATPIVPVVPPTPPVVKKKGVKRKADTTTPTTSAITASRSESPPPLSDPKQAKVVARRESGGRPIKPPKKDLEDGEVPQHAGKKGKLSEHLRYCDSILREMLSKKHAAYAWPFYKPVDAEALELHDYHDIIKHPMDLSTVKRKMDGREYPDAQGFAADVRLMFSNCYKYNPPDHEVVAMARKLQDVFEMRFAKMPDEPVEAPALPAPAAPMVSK

For experiment [2], the target named is T2, Bromodomain BRD-3 (1-435) (Homo sapiens, UniProt Q15059).
T2 construct: Recombinant Human Bromodomains (BRD-2 (1-473), BRD-3 (1-435) and BRD-4 (1-477)); six-His tag (N); made in house; host or cells: E. coli (pET15b vector)
Description: Fluorescence Anisotropy Binding Assay, BRD-3. The note with it: pIC50 in the BRD-3 assay, displacement of fluorescent ligand (Reference compound K) 5 nM, BRD-3 75 nM. The protocol: as §1, §2, §3, §4, §5

Each structure is given as a SMILES string. Some results are limits rather than exact numbers.

The record followed here is patent US9753034B2, “Process for the identification of a compound which inhibits the binding of the first bromodomain of each of human BRD-2, BRD-3, and BRD-4” (GLAXOSMITHKLINE LLC, priority 2009, dated 2017).

Regarding `Cc1nnc2n1-c1ccccc1C(c1ccccc1)=NC2NC(=O)OCc1ccccc1` (single isomer, unassigned; (+)) [Compound (I), (+)-Phenylmethyl (1-methyl-6-phenyl-4H-[1,2,4]triazolo[4,3-a][1,4]benzodiazepin-4-yl)carbamate], the half-maximal inhibitory concentration (IC50) in experiment [1] and in experiment [2] was not above 1000 nM throughout.

For orientation: IC50 means the concentration that inhibits the measured activity by half. A low value points to greater potency.
